Test system: Carybdea alata venom in isolated red blood cells (2% RBC)
Test: Hemolysis induced by Carybdea alata venom in 2% RBC
Assay type: cell-based, human

zinc gluconate
half-time of hemolysis (2% RBC, increasing amounts of zinc gluconate, 0.62 mM to 5 mM, FIG. 5B): delays
T½ of lysis (with zinc gluconate, slowed from 10 minutes, venom dose 6.4 U/ml): 40 min

— patent US20130078317A1, “ZINC-CONTAINING COMPOSITIONS FOR THE TREATMENT OF DISEASES, ILLNESSES AND SYNDROMES ASSOCIATED WITH EXPOSURE TO PORE FORMING TOXINS” (priority 2009, published 2013)
